# Experiments:
# sun damage = test: Prevention of sun damage in humans (UVB irradiation); settings: 10 patients, formulations of Example 1 and 2 applied 2 hours before and 1 hour after UVB
# quinone reductase = test: Induction of quinone reductase activity in BP^1Cl hepatoma cells; settings: cultured BP^1Cl hepatoma cells, compared with Hepa 1c1c7
# skin tumors = test: Two-stage mouse skin cancer model (DMBA initiator, TPA promoter); format: in vivo, female CD-1 mice
# C3H/10T1/2 clone 8 cells = test: Two-stage transformation assay in C3H10T1/2 cells; format: cell-based, mouse; settings: TPA (0.1 μg/ml)
# [1] = test system: carrageenan-induced inflammation; test: Carrageenan-induced inflammation in rats (paw volume); settings: phenylbutazone 80 mg/kg oral
# [2] = test system: mouse mammary gland culture
# [3] = 1 μmol resveratrol topically with TPA twice a week for 18 weeks
# [4] = 5 μmol resveratrol topically with TPA twice a week for 18 weeks
# [5] = 10 μmol resveratrol topically with TPA twice a week for 18 weeks
smiles,measurement,setting,value
Oc1ccc(/C=C/c2cc(O)cc(O)c2)cc1,prevention of sun damage,sun damage,prevents sun damage in humans
same,quinone reductase induction response profile,quinone reductase,identical response profile
same,lowering of percentage of mice with tumors,skin tumors; [3],50%
same,reduction of number of skin tumors per mouse,skin tumors; [3],68%
same,lowering of percentage of mice with tumors,skin tumors; [4],63%
same,reduction of number of skin tumors per mouse,skin tumors; [4],81%
same,lowering of percentage of mice with tumors,skin tumors; [5],63%
same,reduction of number of skin tumors per mouse,skin tumors; [5],76%
same,reduction of number of skin tumors per mouse,skin tumors; 25 μmol resveratrol topically with TPA twice a week for 18 weeks,98%
same,"toxicity (skin inspection, gross morphology of major organ systems, body weights)",skin tumors; 1-25 μmol topically twice a week for 18 weeks,No overt signs of resveratrol-induced toxicity were observed
same,No. of wells foci/total no. of wells,"C3H/10T1/2 clone 8 cells; DMBA ([…]), resveratrol 10 μM",2/12
same,Total No. of foci/no. wells scored,"C3H/10T1/2 clone 8 cells; DMBA ([…]), resveratrol 10 μM",2/12
same,Total No. type II,"C3H/10T1/2 clone 8 cells; DMBA ([…]), resveratrol 10 μM",1
same,Total No. type III,"C3H/10T1/2 clone 8 cells; DMBA ([…]), resveratrol 10 μM",1
same,Wells with foci (%),"C3H/10T1/2 clone 8 cells; DMBA ([…]), resveratrol 10 μM",17%
same,No. of wells foci/total no. of wells,"C3H/10T1/2 clone 8 cells; DMBA ([…]), resveratrol 2.5",3/12
same,Total No. of foci/no. wells scored,"C3H/10T1/2 clone 8 cells; DMBA ([…]), resveratrol 2.5",3/12
same,Total No. type II,"C3H/10T1/2 clone 8 cells; DMBA ([…]), resveratrol 2.5",3
same,Total No. type III,"C3H/10T1/2 clone 8 cells; DMBA ([…]), resveratrol 2.5",0
same,No. of wells foci/total no. of wells,"C3H/10T1/2 clone 8 cells; DMBA ([…]), resveratrol 5.0",2/12
same,Total No. of foci/no. wells scored,"C3H/10T1/2 clone 8 cells; DMBA ([…]), resveratrol 5.0",2/12
same,Total No. type II,"C3H/10T1/2 clone 8 cells; DMBA ([…]), resveratrol 5.0",1
same,Total No. type III,"C3H/10T1/2 clone 8 cells; DMBA ([…]), resveratrol 5.0",1
same,Wells with foci (%),"C3H/10T1/2 clone 8 cells; DMBA ([…]), resveratrol 5.0",17%
same,No. of wells foci/total no. of wells,"C3H/10T1/2 clone 8 cells; MCA ([…]), resveratrol 5.0 μM",2/12
same,Total No. of foci/no. wells scored,"C3H/10T1/2 clone 8 cells; MCA ([…]), resveratrol 5.0 μM",4/12
same,Total No. type II,"C3H/10T1/2 clone 8 cells; MCA ([…]), resveratrol 5.0 μM",3
same,Total No. type III,"C3H/10T1/2 clone 8 cells; MCA ([…]), resveratrol 5.0 μM",1
same,Wells with foci (%),"C3H/10T1/2 clone 8 cells; MCA ([…]), resveratrol 5.0 μM",17%
same,No. of wells foci/total no. of wells,"C3H/10T1/2 clone 8 cells; MCA ([…]), resveratrol 10",1/12
same,Total No. of foci/no. wells scored,"C3H/10T1/2 clone 8 cells; MCA ([…]), resveratrol 10",1/12
same,Total No. type II,"C3H/10T1/2 clone 8 cells; MCA ([…]), resveratrol 10",1
same,Total No. type III,"C3H/10T1/2 clone 8 cells; MCA ([…]), resveratrol 10",0
same,Wells with foci (%),"C3H/10T1/2 clone 8 cells; MCA ([…]), resveratrol 10",8.3%
same,No. of wells foci/total no. of wells,"C3H/10T1/2 clone 8 cells; MCA ([…]), resveratrol […]",2/12
same,Total No. of foci/no. wells scored,"C3H/10T1/2 clone 8 cells; MCA ([…]), resveratrol […]",3/12
same,Total No. type II,"C3H/10T1/2 clone 8 cells; MCA ([…]), resveratrol […]",3
same,Total No. type III,"C3H/10T1/2 clone 8 cells; MCA ([…]), resveratrol […]",0
same,Wells with foci (%),"C3H/10T1/2 clone 8 cells; MCA ([…]), resveratrol […]",17%
same,edema-suppressing activity compared with phenylbutazone,[1],greater than that of phenylbutazone
same,toxicity by morphological examination of the glands,[2],No signs of toxicity were observed

# Reference: US6414037B1 (Pharmascience, priority 1998, dated 2002)
